The list shows a part of the results, in another mix than the full data. Active and inactive are the calls of the source. Cut-off read from the data, not from the text of the source: active = activation above about 7.5%; inactive = the rest.

This assay deals with Methionine sulfoxide reductase A (Bos taurus). Description: activation of methionine sulfoxide reductase A – biochemical, absorbance, bovine, HTS, primary screen (AID 602163).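 Note: 0% = vehicle and 100% = reference activator.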 The settings on record: purified bovine MsrA, absorbance read-out; at 10.6 µM; stronger effect = higher value.
As for `CCC(=O)N(c1ccccc1)C1(COC)CCN(CCn2nnn(CC)c2=O)CC1`, the activation was inactive: -0.6%. Take `CCC(=O)N(c1ccccc1)C1(COC)CCN(CCc2cccs2)CC1`: the activation is inactive: -5.93%.
